Reference: patent US20250179183A1 (BIOMOLECULAR, published 2025)

Biological target: T1, cynomolgus monkey CD64 (cynomolgus monkey, UniProt A0A2K5U901 33-309)
T1 construct: also called Cynomolgus FcγR CD64
Test: immobilized cynomolgus FcgR (bivalent format)

| Binder | fold vs MabThera [fold] |
| --- | --- |
| Tafasitamab (antibody, human IgG1, kappa, also called Tafasitamab-cxix; Tafasitamab-S239D/I332E) heavy: EVQLVESGGGLVKPGGSLKLSCAASGYTFTSYVMHWVRQAPGKGLEWIGYINPYNDGTKYNEKFQGRVTISSDKSISTAYMELSSLRSEDTAMYYCARGTYYYGTRVFDYWGQGTLVTVSSASTKGPSVFPLAPSSKSTSGGTAALGCLVKDYFPEPVTVSWNSGALTSGVHTFPAVLQSSGLYSLSSVVTVPSSSLGTQTYICNVNHKPSNTKVDKKVEPKSCDKTHTCPPCPAPELLGGPDVFLFPPKPKDTLMISRTPEVTCVVVDVSHEDPEVQFNWYVDGVEVHNAKTKPREEQFNSTFRVVSVLTVVHQDWLNGKEYKCKVSNKALPAPEEKTISKTKGQPREPQVYTLPPSREEMTKNQVSLTCLVKGFYPSDIAVEWESNGQPENNYKTTPPMLDSDGSFFLYSKLTVDKSRWQQGNVFSCSVMHEALHNHYTQKSLSLSPG light: not shown | 5.7 |
| HB2198 (bispecific antibody, human IgG1, kappa, also called HB2198 (S239D/I332E)) heavy 1: QVQLVQSGGGVVQPGRSLRLSCAASGVSLPDYGVSWVRKAPGKGLEWVAVIWGSETTYYNSALKSRFTISRDNSKNTLYLQMSSLRAEDTAVYYCAKHYYYGGSFAMDYWGQGTLVTVSSASTKGPSVFPLAPSSKSTSGGTAALGCLVKDYFPEPVTVSWNSGALTSGVHTFPAVLQSSGLYSLESVVTVPSSSLGTQTYICNVNHKPSNTKVDKKVEPKSCTDWSPYADQSIKVRISLKSALGDKAYEWNDNEMYLFRSSVAYAMRQYFLKVKNQMILFGEEDVRVANLKPRISFNFFVTAPKNVSDIIPRTEVEKAIRMSRSRINDAFRLNDNSLEFLGIQPTLGPPNQPPVSTSTSPTRSMAPGAVHLPQPVSTRDKTHTCPPCPAPELLGGPDVFLFPPKPKDTLMISRTPEVTCVVVDVSHEDPEVKFNWYVDGVEVHNAKTKPREEQYNSTYRVVSVLTVLHQDWLNGKEYKCKVSNKALPAPEEKTISKAKGQPREPQVCTLPPSRDELTKNQVSLSCAVKGFYPSDIAVEWESNGQPENNYKTTPPVLDSDGSFFLVSKLTVDKSRWQQGNVFSCSVMHEALHNRFTQKSLSLSPG heavy 2: QIVLSQSPAILSASPGEKVTMTCRASSSVSYIHWFQKKPGSSPKPWIYATSNLASGVPVRFSGSGSGTSYSLTISRVEAEDAATYYCQQWTSNPPTFGGGTKVEIKSSASTKGPSVFPLAPSSKSTSGGTAALGCLVKDYFPEPVTVSWNSGALTSGVHTFPAVLQSSGLYSLKSVVTVPSSSLGTQTYICNVNHKPSNTKVDKKVEPKSCDKTHTCPPCPAPELLGGPDVFLFPPKPKDTLMISRTPEVTCVVVDVSHEDPEVKFNWYVDGVEVHNAKTKPREEQYNSTYRVVSVLTVLHQDWLNGKEYKCKVSNKALPAPEEKTISKAKGQPREPQVYTLPPCRDELTKNQVSLWCLVKGFYPSDIAVEWESNGQPENNYKTTPPVLDSDGSFFLYSKLTVDKSRWQQGNVFSCSVMHEALHNHYTQKSLSLSPG light 1: DIQMTQSPSSLSASVGDRVTITCRASQDISKYLNWYQEKPGKAIKLLIYHTSRLHSGVPSRFSGSGSGTDFTLTISSLQPEDFATYYCQQGATLPYTFGPGTKLEIKRTVAAPSVFIFPPSDEQLKSGTASVKCLLNNFYPREAKVQWKVDNALQSGNSQESVTEQDSKDSTYSLSSTLTLSKADYEKHKVYACEVTHQGLSSPVTKSFNRGEC light 2: QVQLQQPGAELVKPGASVKMSCKASGYTFTSYNMHWVKETPGRGLEWIGAIYPGNGDTSYNQKFKGKATLTADKSSSTAYMQLSSLTSEDSAVYYCARSTYYGGDWYFNVWGAGTLVTVSSASVAAPSVFIFPPSDEQLKSGTASVECLLNNFYPREAKVQWKVDNALQSGNSQESVTEQDSKDSTYSLSSTLTLSKADYEKHKVYACEVTHQGLSSPVTKSFNRGEC | > 515 |
